Test results published in PMC4764553, “Human cytomegalovirus IE1 protein alters the higher-order chromatin structure by targeting the acidic patch of the nucleosome” (eLife, 2016).
pKd: −log10 of the molar value.

System: LANA N-terminal CTD peptide;human histone octamer WT (Kaposi's sarcoma-associated herpesvirus;Homo sapiens)
Assay: ITC

147-bp Widom 601 (human NCP)
pKd: 6.60
